Test results taken from publication PMC8518382, “Identification of a Bromodomain‐like Region in 15‐Lipoxygenase‐1 Explains Its Nuclear Localization” (Angewandte Chemie (International Ed. in English), 2021).

Target: T1, 15-LOX-2 (Homo sapiens, UniProt O15296)
T1 construct: endogenous in cells; host or cells: A549 cell lysate
T1 sequence (O15296 1-676): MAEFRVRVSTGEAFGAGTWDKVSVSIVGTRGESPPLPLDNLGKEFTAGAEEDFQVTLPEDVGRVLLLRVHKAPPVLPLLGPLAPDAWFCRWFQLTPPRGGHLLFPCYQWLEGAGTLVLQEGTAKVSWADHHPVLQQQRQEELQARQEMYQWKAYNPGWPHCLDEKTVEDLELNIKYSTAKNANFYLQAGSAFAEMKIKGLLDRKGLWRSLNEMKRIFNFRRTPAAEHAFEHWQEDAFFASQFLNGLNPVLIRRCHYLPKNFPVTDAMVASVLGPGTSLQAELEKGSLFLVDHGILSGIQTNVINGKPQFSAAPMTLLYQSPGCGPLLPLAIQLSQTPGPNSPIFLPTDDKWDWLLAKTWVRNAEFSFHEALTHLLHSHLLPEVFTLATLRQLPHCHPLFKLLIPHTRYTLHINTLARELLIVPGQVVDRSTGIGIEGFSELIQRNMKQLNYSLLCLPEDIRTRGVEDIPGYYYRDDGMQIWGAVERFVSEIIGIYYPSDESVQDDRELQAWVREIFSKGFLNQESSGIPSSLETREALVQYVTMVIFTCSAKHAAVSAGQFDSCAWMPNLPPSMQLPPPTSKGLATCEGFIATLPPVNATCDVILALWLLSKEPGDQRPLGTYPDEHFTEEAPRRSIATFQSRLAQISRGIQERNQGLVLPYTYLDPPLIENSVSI
Assay: ABP-based ELISA assay with A549 cell lysate, 15-LOX-2
Format: biochemical
Protocol: A549 cell lysate was treated with a serial dilution of the respective inhibitor. Subsequently, samples were labeled by treatment with 1 μM of Labelox B for 1 min. […] Data are mean±s.d., n≥3 independent experiments. […]
1.6. Immunoblotting Analysis […]
1.7. ABPP-based LOX inhibitor specificity validation
A549 cells were lysed by RIPA buffer supplemented with 1x PIC. After sonication and centrifugation, the supernatant was collected, and the protein concentration was determined by a Pierce BCA Protein Assay Kit (Thermo Fisher Scientific, USA). The lysates were then diluted with PBS to 300 ng/µl and stored in -20°C. To label endogenous LOXs with Labelox B under the competition condition, 180 µl diluted lysates were incubated with 200 µl different LOX inhibitor solution (in PBS) with desired concentrations for 18 min to inhibit LOXs activity. Later, 20 µl of a 20 µM Labelox B (in PBS) was added and incubated shortly for 2 min, followed by adding 50 µl of a 0.5 M EDTA to stop the labeling reaction. The reaction mixture was 450 µl in total. Inhibitors and Labelox B were absent in positive and […]
(1 picture or pasted object on this page, not shown here) […]
negative control, respectively. […]
(1:500 dilution in PBS) for overnight at 4°C. […] The absorbance at […]

## CC(c1cc2ccccc2s1)N(O)C(N)=O (stereo not shown) [Zileuton]
  Effect on ABP labeling: little or no effect
